Experimental data: ChEMBL document CHEMBL1149137, “Synthesis, screening, and molecular modeling of new potent and selective antagonists at the alpha 1d adrenergic receptor” (J Med Chem, 2004)

target: Alpha-1A adrenergic receptor (Homo sapiens) (UniProt P35348); assay: In vitro binding affinity towards alpha-1A adrenergic receptor through displacement of [3H]prazosin in cloned human receptor.

Ki	SMILES
92 nM	O=C1CCC(=O)N1CCN1CCN(c2cc(Cl)ccc2Cl)CC1
495 nM	COc1ccccc1N1CCN(CCN2C(=O)CC3(CCCC3)CC2=O)CC1 [BMY-7378]
128 nM	O=C1CC2(CCCC2)CC(=O)N1CCN1CCN(c2cc(Cl)ccc2Cl)CC1
